Measurements from ChEMBL document CHEMBL3046380, “In Vitro and In Vivo Characterization of Alpha-1A Selective Agonists and Their Utility for Stress Incontience” (Med Chem Res, 2004).
Active and inactive are the calls of the source. The calls are words filed in the database; no cut-off is given here.

Chains of the proteins cited; added tags and fusions are not shown.
UniProt P15823, whole entry: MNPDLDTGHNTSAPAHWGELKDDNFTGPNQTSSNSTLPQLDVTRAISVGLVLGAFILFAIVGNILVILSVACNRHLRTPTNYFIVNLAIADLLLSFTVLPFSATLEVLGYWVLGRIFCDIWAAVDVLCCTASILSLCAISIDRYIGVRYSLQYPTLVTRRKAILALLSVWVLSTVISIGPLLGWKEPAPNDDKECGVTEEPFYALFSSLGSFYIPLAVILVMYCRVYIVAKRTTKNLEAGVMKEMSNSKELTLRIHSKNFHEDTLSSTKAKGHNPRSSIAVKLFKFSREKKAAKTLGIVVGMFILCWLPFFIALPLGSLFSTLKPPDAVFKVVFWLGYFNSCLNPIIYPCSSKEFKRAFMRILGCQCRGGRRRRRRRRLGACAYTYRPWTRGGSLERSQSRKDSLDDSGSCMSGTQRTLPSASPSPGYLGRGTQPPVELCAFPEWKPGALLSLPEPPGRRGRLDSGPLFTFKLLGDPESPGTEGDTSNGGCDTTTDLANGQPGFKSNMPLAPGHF

Target: Alpha-1B adrenergic receptor (Rattus norvegicus) (UniProt P15823)
Test: Agonist activity at alpha1B adrenoreceptor in Rattus norvegicus (rat) spleen

CCS(=O)(=O)Nc1cccc(Cc2c[nH]cn2)c1C was tested, and the pEC50 was “inactive”.
In the case of Cn1cnc(C2CCCc3c(NS(C)(=O)=O)cccc32)c1 (configuration not stated), the pEC50 is reported as “inactive”.
